UUG fidelity: modulators of start codon recognition fidelity in yeast. S. cerevisiae UUG-firefly luciferase reporter, luminescence/redox ratio. activity score, % at 18.7 µM. 0.13% of 350,000 active. AID 602363;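 active = replicate mean at a twofold rise or more, about +100% in these data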;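 also: firefly luciferase made from a UUG start codon reports start codon fidelity; reporter light over untreated wells divided by growth signal over untreated wells; some hits fall short of that in this replicate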
ALR inh: human ALR oxidase inhibition via reduced H2O2; P55789; purified ALR, DTT oxidation, H2O2 HRP-luminol luminescence; inhibition, % (concentration not given with the values); 3.8% of 290,000 active; AID 485317;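 active = mean and each replicate at 75% or more; inconclusive = only one of the two met; inactive = neither met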;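 note: stock transfer was 7.5 nL into about 7.5 µL; 0% = neutral wells and 100% = wells with inactivated enzyme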
MC4R barr agon: MC4R agonists recruiting beta-arrestin, primary screen, cell-based, luminescence, agonist arm of biased-ligand search; Melanocortin receptor 4 (Homo sapiens), P32245; U2OS MC4R beta-arrestin complementation; percent of melanotan II response, DMSO zero; activation, % at 8.9 µM; 360,000 tested, 0.98% active; AID 540308, 2011;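 active = activation above a per-plate cutoff, the mean activation of sample wells on that plate plus 3 SD, cut at about 8% in these data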
NALP1 inh: NALP1 inflammasome inhibitors in reconstituted yeast, colorimetric, S. cerevisiae, triplicate retest; S. cerevisiae NALP1/ASC/caspase-1 growth, X-gal OD620, 72 h; inhibition, % at 10 µM; 280,000 tested, 0.61% active; in the data active = inhibition mostly above about 24%, no sharp cut-off; inactive = mostly below about 32%
MC4R antag cAMP: MC4R antagonists of cAMP signaling, primary screen, cell-based, TR-FRET, antagonist arm of biased-ligand search; Melanocortin receptor 4 (Homo sapiens), P32245; MC4R-expressing cells, MTII-stimulated cAMP, LANCE TR-FRET; inhibition, % at 6.5 µM; 360,000 tested, 0.48% active; AID 540295, 2011;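 active = inhibition above its plate's cutoff, the mean of tested wells on that plate plus 3 SD, cut at about 29% in these data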;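 also: 0% = Melanotan II alone and 100% = Melanotan II plus saturating MCL0020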
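material = U2OS cells stably expressing human melanocortin 4 receptor (MC4R) | also added = Melanotan II challenge | dosing = single nominal compound dose of 6.5 µM | detection = TR-FRET with Eu-cAMP and labeled anti-cAMP, 671 nm | replication = singlicate | timing = compound 30 min, challenge 1 h, detection 1 h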
HDAC3 inhib: HDAC3 deacetylase inhibitors, primary screen, biochemical, fluorescence, cell-free homogeneous | Histone deacetylase 3 (Homo sapiens), O15379 | recombinant HDAC3, fluorogenic peptide/trypsin coupled | inhibition, % at 8.3 µM | 320,000 tested, 0.15% active | AID 2718, 2010; in the data active = inhibition above about 26%, passing the limit was not always enough
U2OS cAMP counter: nonselective cAMP signaling inhibitors, parental cells, counter-screen for MC4R biased antagonist project, cell-based, TR-FRET, U2OS, forskolin, triplicate. shares compounds with MC4R antag cAMP. LANCE TR-FRET. inhibition, % at 6.5 µM. 1,600 tested, 26% active. AID 602193, 2012;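 active = mean inhibition over triplicates above the low-control well mean plus 3 SD, set per campaign, cut at about 13% in these data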;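 also: signal is single emission at 671 nm which falls as cellular cAMP rises; 0% = forskolin-stimulated wells and 100% = buffer without forskolin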
MC4R cAMP antag: MC4R cAMP antagonists, retest, confirmation, cell-based, TR-FRET | 1,600 tested, 27% active | shares compounds with MC4R antag cAMP | MC4R-expressing cells, MTII-stimulated cAMP | inhibition, % at 6.5 µM; in the data active = inhibition above about 29%;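 also: 0% = agonist stimulated wells alone and 100% = agonist stimulated wells plus saturating reference antagonist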
Starred values were filed as active, the others as inactive; / = not tested or not shown. Sampled rows, rich in hits. Any-hit rate of the full collection: about 4.2%.

By UniProt entry, the sequences of proteins in these tests, tags left out.
Melanocortin receptor 4 (Homo sapiens), P32245, UniProt P32245, whole entry, looked up: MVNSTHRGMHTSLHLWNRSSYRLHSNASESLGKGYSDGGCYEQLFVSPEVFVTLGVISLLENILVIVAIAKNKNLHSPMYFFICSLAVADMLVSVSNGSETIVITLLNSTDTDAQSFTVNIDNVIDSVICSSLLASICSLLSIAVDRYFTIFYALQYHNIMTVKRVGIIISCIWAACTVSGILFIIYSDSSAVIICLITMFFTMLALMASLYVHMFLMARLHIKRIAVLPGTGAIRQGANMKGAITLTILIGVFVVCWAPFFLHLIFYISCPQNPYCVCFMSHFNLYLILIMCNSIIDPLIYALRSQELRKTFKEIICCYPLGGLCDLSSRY

SMILES	UUG fidelity	ALR inh	MC4R barr agon	NALP1 inh	MC4R antag cAMP	HDAC3 inhib	U2OS cAMP counter	MC4R cAMP antag
C[C@@H]1CN([C@H](C)CO)C(=O)c2cc(NS(C)(=O)=O)ccc2O[C@@H](C)CCCCO[C@H]1CN(C)Cc1ccc(C(F)(F)F)cc1	31	/	/	/	/	/	/	/
CCOCCOC(=O)COc1ccc2c(=O)c(Oc3ccc(OC)cc3)coc2c1	-3	-17	-1	23	29*	5	24*	28
CCOC(=O)COc1ccc2c(=O)c(-c3ccccc3)coc2c1	-4	-4	-1	/	39*	6	19*	43*
CC(=O)Oc1ccc2c(=O)c(-c3ccccc3)coc2c1	/	6	0	11	-9	3	/	/
C[C@H]1CN([C@@H](C)CO)C(=O)Cc2cc(NC(=O)Cc3cn(C)c4ccccc34)ccc2O[C@H]1CN(C)S(=O)(=O)c1ccc(F)cc1	2	/	/	/	/	/	/	/
CCCC#Cc1ccc2c(c1)O[C@@H](CN(C)C(=O)CC1CC1)[C@H](C)CN([C@@H](C)CO)S2(=O)=O	-2	/	/	/	/	/	/	/
Cc1ccc(S(=O)(=O)NCC(=O)OCC(=O)NC(=O)c2cccn2C)cc1	-3	-12	2	6	34*	/	26*	40*
Cc1ccc(S(=O)(=O)NCC(=O)OCC(=O)c2cccs2)cc1	-7	0	-1	-13	38*	3	7	13
C[C@@H]1CCCCO[C@@H](CN(C)Cc2ccc3c(c2)OCO3)[C@H](C)CN([C@@H](C)CO)C(=O)c2cc(NS(=O)(=O)c3cccs3)ccc2O1	29	/	/	/	/	/	/	/
Cc1ccc(NC(=O)c2cncc(Br)c2)cc1S(=O)(=O)N(C)C	-21	0	2	35	29*	-6	6	-3
COc1ccc(S(=O)(=O)Nc2ccc3c(c2)C(=O)N([C@@H](C)CO)C[C@@H](C)[C@H](CN(C)C(=O)C2CCCCC2)OCCCC[C@H](C)O3)cc1	13	/	/	/	/	/	/	/
O=C(NCCN1C(=O)S/C(=C\c2ccc(Cl)c(Cl)c2)C1=O)c1cnccn1	/	/	1	37	6	-1	/	/
O=C(NCCN1C(=O)S/C(=C\c2ccc(Cl)c([N+](=O)[O-])c2)C1=O)C1=COCCO1	-11	-7	-4	/	29*	5	9	8
O=C(CS(=O)(=O)c1ccccc1)Nc1nnc(C(F)(F)F)s1	-8	-3	-2	-2	32*	-2	-1	-9
C[C@H]1CN([C@@H](C)CO)C(=O)c2cc(NC(=O)Cc3ccccc3)ccc2O[C@H]1CN(C)CC1CCCCC1	8	/	/	/	/	/	/	/
CC(C)Cn1c(CN2CCN(c3ccccc3F)CC2)nc2c1c(=O)[nH]c(=O)n2C	6	-4	1	5	29*	2	0	8
COC(=O)Cn1c(CN2CCN(c3ccccc3F)CC2)nc2c1c(=O)n(C)c(=O)n2C	-7	/	0	/	8	/	/	/
CC(C)(C)NC(=O)NC(=O)COC(=O)CNC(=O)c1cc(Cl)cc([N+](=O)[O-])c1	15	-18	-6	-9	30*	4	11	12
O=C1Nc2cccc3c2N(CCC3)C2=C1CCC2	-7	/	0	/	30*	/	1	11
COc1ccc(NC(=O)N(C)C[C@H]2Oc3ccc(NC(=O)C4CCCCC4)cc3C(=O)N([C@H](C)CO)C[C@H]2C)cc1	7	/	/	/	/	/	/	/
COc1ccc(NC(=O)Nc2ccccc2SC)c(OC)c1	-7	-35	1	14	34*	-1	-3	-10
COC(=O)C(Cc1ccccc1)NC(=O)CC(C)CC(=O)Nc1ccc(OC)cc1OC (stereo not drawn)	-10	-8	0	3	35*	-2	9	9
COc1ccccc1NC(=O)NCc1ccco1	/	2	-3	-1	-4	2	/	/
COc1ccc(NC(=O)CC(C)C)c(OC)c1	-9	-23	-1	0	2	2	/	/
COc1ccc(NC(=O)NCc2ccco2)c(OC)c1	/	-8	-1	10	33*	-7	2	2

Record cards, from the list above. Order of screens: UUG fidelity | ALR inh | MC4R barr agon | NALP1 inh | MC4R antag cAMP | HDAC3 inhib | U2OS cAMP counter | MC4R cAMP antag
C[C@@H]1CN([C@H](C)CO)C(=O)c2cc(NS(C)(=O)=O)ccc2O[C@@H](C)CCCCO[C@H]1CN(C)Cc1ccc(C(F)(F)F)cc1 in the list: 31 | / | / | / | / | / | / | /
COc1ccc(NC(=O)N(C)C[C@H]2Oc3ccc(NC(=O)C4CCCCC4)cc3C(=O)N([C@H](C)CO)C[C@H]2C)cc1 in the list: 7 | / | / | / | / | / | / | /
COc1ccc(NC(=O)CC(C)C)c(OC)c1 in the list: -9 | -23 | -1 | 0 | 2 | 2 | / | /
COC(=O)C(Cc1ccccc1)NC(=O)CC(C)CC(=O)Nc1ccc(OC)cc1OC (stereo not drawn) in the list: -10 | -8 | 0 | 3 | 35* | -2 | 9 | 9
C[C@H]1CN([C@@H](C)CO)C(=O)c2cc(NC(=O)Cc3ccccc3)ccc2O[C@H]1CN(C)CC1CCCCC1 in the list: 8 | / | / | / | / | / | / | /

Going on with the list:
SMILES	UUG fidelity	ALR inh	MC4R barr agon	NALP1 inh	MC4R antag cAMP	HDAC3 inhib	U2OS cAMP counter	MC4R cAMP antag
CCCC#Cc1cnc2c(c1)C(=O)N([C@H](C)CO)C[C@H](C)[C@H](CN(C)C(=O)c1cccnc1)O2	41	/	/	/	/	/	/	/
O=C(CC1C(=O)NCCN1Cc1ccc(-c2ccccc2)cc1)NCCCn1ccnc1 (stereo not drawn)	/	-3	1	/	31*	-4	-14	-24
O=C(CC1C(=O)NCCN1Cc1ccc(-c2ccccc2)cc1)NCCOc1cccnc1 (stereo not drawn)	/	-8	-1	9	-4	-1	/	/
O=C(OCc1ccccc1)c1cnc(Cl)c(Cl)c1	-16	/	1	8	26	1	/	/
CC(C)N(Cc1ccccc1)C(=O)COC(=O)c1cnc(Cl)c(Cl)c1	-16	-1	-4	/	45*	2	33*	52*
O=C(COC(=O)c1cnc(Cl)c(Cl)c1)NCc1cccs1	/	4	-2	9	36*	-8	22*	35*
CC(C)CN(C(=O)COC(=O)c1cnc(Cl)c(Cl)c1)c1c(N)n(Cc2ccccc2)c(=O)[nH]c1=O	/	-3	-3	/	47*	5	12	51*
O=C(NCc1cccs1)c1cnc(Cl)c(Cl)c1	/	-1	-2	15	21	-15	/	/
C[C@H](CO)N1C[C@H](C)[C@@H](CN(C)S(=O)(=O)c2ccccc2)OCCCC[C@H](C)Oc2ccc(NS(=O)(=O)c3ccccc3)cc2C1=O	2	/	/	/	/	/	/	/
O=C(Nc1cc(Cl)ncn1)c1ccccc1	-13	2	0	/	30*	3	17*	38*
O=C(Nc1cc(S(=O)(=O)N2CCCCC2)ccc1Cl)c1ccccc1NS(=O)(=O)c1ccc(F)cc1	/	-5	3	23	31*	-30	1	5
O=C(CN(Cc1ccco1)Cc1ccco1)Nc1cc(S(=O)(=O)N2CCCCC2)ccc1Cl	-21	/	3	/	29*	13	5	11
O=C(NCc1ccco1)c1cc(S(=O)(=O)N2CCCC2)ccc1Cl	-10	0	1	2	-1	-5	/	/
